Biological target: T1, Neurotensin receptor type 2 (Rattus norvegicus) (UniProt Q63384)
T1 sequence (whole entry): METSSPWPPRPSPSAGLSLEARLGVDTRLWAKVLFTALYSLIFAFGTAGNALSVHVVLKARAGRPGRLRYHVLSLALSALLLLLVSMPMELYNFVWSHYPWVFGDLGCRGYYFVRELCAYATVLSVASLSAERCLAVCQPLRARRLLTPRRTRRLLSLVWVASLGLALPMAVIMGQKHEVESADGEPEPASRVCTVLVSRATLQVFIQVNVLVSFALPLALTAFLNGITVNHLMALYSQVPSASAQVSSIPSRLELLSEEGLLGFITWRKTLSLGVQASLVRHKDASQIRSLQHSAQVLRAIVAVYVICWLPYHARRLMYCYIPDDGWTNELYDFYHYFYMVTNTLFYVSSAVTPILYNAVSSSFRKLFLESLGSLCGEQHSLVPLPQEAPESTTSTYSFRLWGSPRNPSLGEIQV
Settings: CHO-K1, 10 uM

inhibition: > 50%
SMILES: Cc1ccc(S(=O)(=O)Nc2ccc3c(ccn3CC(=O)N[C@@H](CC(C)C)C(=O)O)c2)cc1
